# Cyclic peptide permeability, from CycPeptMPDB

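Conditions beyond the assay type are not listed; see the original paper. The list need not hold all peptides of the study. Peptides that the database sets to -10, its floor, are left out.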

PAMPA measures passive passage through an artificial lipid membrane.
Permeability is in 10^-6 cm/s, converted from the database's log10 values; higher is more permeable.

compound | PAMPA (10^-6 cm/s)
CC(C)C[C@@H]1NC(=O)[C@@H](C)NC(=O)[C@H](Cc2ccccc2)NC(=O)[C@H](CC(C)C)N(C)C(=O)[C@@H]2CCCN2C(=O)[C@H](CC(C)C)NC1=O | 0.54
CC(C)C[C@@H]1NC(=O)CN(Cc2ccccc2)C(=O)[C@@H](C)N(C)C(=O)[C@H]2CCCN2C(=O)[C@H](Cc2ccccc2)NC(=O)[C@H](CC(C)C)N(C)C(=O)[C@H]2CCCN2C1=O | 1.9
CC(C)C[C@@H]1C(=O)N[C@@H](Cc2ccccc2)C(=O)N2CCC[C@H]2C(=O)N(C)[C@@H](C)C(=O)N(C)[C@@H](CC(C)C)C(=O)N(Cc2ccccc2)CC(=O)N2CCC[C@H]2C(=O)N1C | 1
CC(C)C[C@@H]1NC(=O)[C@@H]2CCCN2C(=O)C[C@H](Cc2ccccc2)NC(=O)[C@@H](CC(C)C)N(C)C(=O)[C@@H](C)NC(=O)[C@H](Cc2ccccc2)NC1=O | 1.2
CC(C)C[C@@H]1C(=O)N[C@@H](Cc2ccccc2)C(=O)N2CCC[C@H]2C(=O)N[C@@H](C)C(=O)N(C)[C@@H](CC(C)C)C(=O)N[C@@H](Cc2ccccc2)CC(=O)N2CCC[C@@H]2C(=O)N1C | 8.5
CCCN1CC(=O)N[C@H](CC(C)C)C(=O)N(Cc2ccccc2)CC(=O)N2CCC[C@@H]2C(=O)N(Cc2ccccc2)CC(=O)N[C@@H](Cc2ccccc2)C(=O)N2CCC[C@H]2C1=O | 0.38
CC(C)C[C@@H]1NC(=O)[C@@H](C)N(C)C(=O)[C@H]2CCCN2C(=O)[C@H](Cc2ccccc2)NC(=O)CN(Cc2ccccc2)C(=O)[C@H]2CCCN2C(=O)[C@H](CC(C)C)N(C)C1=O | 3.9
CC(C)C[C@H]1NC(=O)[C@H](C)N(C)C(=O)[C@@H]2CCCN2C(=O)[C@H](Cc2ccccc2)NC(=O)[C@H](CC(C)C)N(C)C(=O)[C@@H]2CCCN2C(=O)CN(Cc2ccccc2)C1=O | 0.81
CC(C)C[C@H]1NC(=O)C[C@H](Cc2ccccc2)NC(=O)[C@H](Cc2ccccc2)NC(=O)[C@H](CC(C)C)N(C)C(=O)[C@@H]2CCCN2C(=O)C[C@H](Cc2ccccc2)NC1=O | 2.1
CCCN1CC(=O)N(C)[C@@H](CC(C)C)C(=O)N[C@@H](CC(C)C)C(=O)N2CCC[C@@H]2C(=O)N[C@H](CC(C)C)C(=O)N[C@@H](Cc2ccccc2)C1=O | 10
CC(C)C[C@@H]1NC(=O)[C@@H](C)NC(=O)[C@H]2CCCN2C(=O)[C@H](Cc2ccccc2)NC(=O)[C@H](CC(C)C)N(C)C(=O)[C@H]2CCCN2C(=O)[C@H](CC(C)C)N(C)C1=O | 3.3
CC(C)C[C@@H]1NC(=O)[C@H](C)NC(=O)[C@@H]2CCCN2C(=O)[C@H](Cc2ccccc2)NC(=O)CN(Cc2ccccc2)C(=O)[C@@H]2CCCN2C(=O)CN(Cc2ccccc2)C1=O | 0.66
CC(C)C[C@H]1C(=O)N[C@@H](Cc2ccccc2)C(=O)N2CCC[C@@H]2C(=O)N[C@H](C)C(=O)N(C)[C@@H](CC(C)C)C(=O)N(Cc2ccccc2)CC(=O)N2CCC[C@@H]2C(=O)N1C | 0.56
CCCN1CC(=O)N(C)[C@H](CC(C)C)C(=O)N[C@H](CC(C)C)C(=O)N2CCC[C@@H]2C(=O)N(C)[C@H](CC(C)C)C(=O)N[C@@H](Cc2ccccc2)C(=O)N2CCC[C@H]2C1=O | 6
CC(C)C[C@@H]1NC(=O)[C@H](CC(C)C)N(C)C(=O)C[C@H](Cc2ccccc2)NC(=O)[C@H](Cc2ccccc2)NC(=O)[C@@H](CC(C)C)N(C)C(=O)[C@H]2CCCN2C1=O | 4.6
CC(C)C[C@@H]1NC(=O)C[C@H](Cc2ccccc2)NC(=O)[C@@H]2CCCN2C(=O)[C@H](Cc2ccccc2)NC(=O)[C@@H](CC(C)C)N(C)C(=O)[C@@H]2CCCN2C(=O)[C@@H](CC(C)C)N(C)C1=O | 3.5
CC(C)C[C@@H]1C(=O)N2CCC[C@@H]2C(=O)N(C)[C@@H](CC(C)C)C(=O)N[C@@H](Cc2ccccc2)C(=O)N2CCC[C@H]2C(=O)N[C@@H](Cc2ccccc2)CC(=O)N[C@H](CC(C)C)C(=O)N1C | 4.9

3 of these entries, quoted again:

compound	PAMPA (10^-6 cm/s)
CC(C)C[C@@H]1NC(=O)[C@@H](C)NC(=O)[C@H]2CCCN2C(=O)[C@H](Cc2ccccc2)NC(=O)[C@H](CC(C)C)N(C)C(=O)[C@H]2CCCN2C(=O)[C@H](CC(C)C)N(C)C1=O	3.3
CC(C)C[C@@H]1NC(=O)[C@H](C)NC(=O)[C@@H]2CCCN2C(=O)[C@H](Cc2ccccc2)NC(=O)CN(Cc2ccccc2)C(=O)[C@@H]2CCCN2C(=O)CN(Cc2ccccc2)C1=O	0.66
CC(C)C[C@@H]1NC(=O)[C@@H](C)NC(=O)[C@H](Cc2ccccc2)NC(=O)[C@H](CC(C)C)N(C)C(=O)[C@@H]2CCCN2C(=O)[C@H](CC(C)C)NC1=O	0.54

Collected by the curators of CycPeptMPDB (Li et al. 2023) from Townsend et al. 2020, doi:10.26434/chemrxiv.13335941.v1.